From ChEMBL document CHEMBL5150021, “Identification of 5-(Aryl/Heteroaryl)amino-4-quinolones as Potent Membrane-Disrupting Agents to Combat Antibiotic-Resistant Gram-Positive Bacteria” (J Med Chem, 2022) come the findings set out here.

A short description of this experiment: Ratio of MBC for bactericidal activity against methicillin resistant Staphylococcus aureus USA300 FPR3757 to MIC for antibacterial activity against community-associated methicillin-resistant Staphylococcus aureus USA300 FPR3757. The experiment is classed as functional.
`FC(F)(F)c1ccc(Nc2cc(C(F)(F)F)nc3cc(C(F)(F)F)ccc23)nc1`: the Ratio was found to be 32.

Consider `O=c1cc(C(F)(F)F)[nH]c2cc(C(F)(F)F)cc(N[C@H]3CC[C@H](C(F)(F)F)CC3)c12`, for which the Ratio is on record as 8.

In the case of `O=c1cc(C(F)(F)F)[nH]c2cc(C(F)(F)F)cc(Nc3ccc(C(F)(F)F)cn3)c12`, the Ratio worked out at 32.

Regarding `FC(F)(F)c1ccc2c(Nc3ccc(Cl)c(Cl)c3)cc(C(F)(F)F)nc2c1`, the Ratio turned out to be 32.
